Data: US7803788B2, “Prodrugs of phosphonate nucoleotide analogues” (Gilead Sciences, Inc., priority 2000, dated 2010)

What was measured:
[1] = Stability in human plasma; type: in vitro ADME; conditions: 37° C., TBS pH 7.5
[2] = test system: PLCE (porcine liver carboxyesterase); assay: PLCE hydrolysis; type: in vitro ADME; conditions: 37° C., PBS pH 7.4

Q: What does the source list for `CC(C)OC(=O)C(C)NP(=O)(COC(C)Cn1cnc2c(N)ncnc21)Oc1ccccc1` (single isomer, unassigned) [compound 4]?
A: Human Plasma Stability (HP) product [1]: Met. Y; PLCE hydrolysis product [2]: Met. X & PMPA
